# Measurements from PubChem BioAssay AID602310 (National Center for Advancing Translational Sciences (NCATS), 2012).
# Chains of the proteins cited; added tags and fusions are not shown. Lines headed by an entry give the natural chain unless they say otherwise; changes in a name come on top.
# UniProt Q9HC16: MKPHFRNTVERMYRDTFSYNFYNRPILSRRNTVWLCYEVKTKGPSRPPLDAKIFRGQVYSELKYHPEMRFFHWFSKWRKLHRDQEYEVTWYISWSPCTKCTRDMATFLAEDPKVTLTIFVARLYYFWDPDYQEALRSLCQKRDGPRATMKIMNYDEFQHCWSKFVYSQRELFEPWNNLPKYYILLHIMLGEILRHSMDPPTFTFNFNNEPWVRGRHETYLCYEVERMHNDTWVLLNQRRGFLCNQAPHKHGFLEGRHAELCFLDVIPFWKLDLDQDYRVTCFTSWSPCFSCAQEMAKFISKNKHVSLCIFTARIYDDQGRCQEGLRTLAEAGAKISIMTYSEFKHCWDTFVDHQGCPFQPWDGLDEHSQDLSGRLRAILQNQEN
# Hit rate of the full screen: of about 410,000 compounds, about 310 (0.076%) were called active. These results got no clear call from the source, so the numbers are uncertain. Calls follow the shape of the dose curve; as a rule, active = well fitted curve in the direction sought with a large enough effect; inconclusive = small, poorly fitted or top-dose-only effect; inactive = flat fitted curve, though single readings scatter.
# Molecular target: DNA dC->dU-editing enzyme APOBEC-3G (Homo sapiens) (UniProt Q9HC16)
# Assay: qHTS for Inhibitors of Vif-A3G Interactions: qHTS; also: nearly all actives have a fitted effect of over 60% in size
# Conditions: HeLa A3G-eYFP + Vif (tagged APOBEC3G with the HIV-1 protein that degrades it), YFP fluorescence, overnight
# Source text: The recent discovery and characterization of host restriction factors, which provide a potent defense to invading retroviruses, has provided new targets for antiviral drug development. APOBEC3G (A3G) and APOBEC3F (A3F) are potent cytidine deaminases that block HIV-1 replication; HIV-1 expresses the Vif protein, which counteracts A3G and A3F by binding to them and inducing their proteasomal degradation. The Vif-A3G and Vif-A3F interactions provide two potential targets for development of small molecules which can interfere with the ability of Vif to degrade A3G or A3F. […] To identify inhibitors that can interfere with Vif mediated degradation of A3G and A3F, we have developed Hela cell lines that stably express A3G or A3F tagged with eYFP at the C-terminal end (A3G-eYFP or A3F-eYFP, respectively) and Vif. In the absence of an inhibitor, Vif induces degradation of A3G-eYFP and A3F-eYFP, and the cells are not fluorescent. In the presence of an inhibitor, it is expected that Vif will be unable to degrade A3G-eYFP and/or A3F-eYFP, resulting in an increase in yellow fluorescence. In this assays Vif A3G was screened against the Molecular Library Small Molecule Repository (MLSMR). NIH Chemical Genomics Center [NCGC] NIH Molecular Libraries Probe Centers Network [MLPCN] MLPCN Grant: MH093245 Assay Submitter (PI): Vinay Pathak, National Cancer Institute
# 5 uL of 700 cells/well of A3G-YFP cells are dispensed into black, clear bottom plates. The plates are incubated overnight at 37 deg C. 23 nL of compounds are added by pintool. The plates are incubated overnight at 37 deg C and then read on the TTP Acumen (Ex 488/ Em 500-530).
# Potency is read from the fitted curve at half-maximal effect.
row,Structure (SMILES),Potency
1,Cc1ccc(NCCc2c([N+](=O)[O-])cc([N+](=O)[O-])cc2[N+](=O)[O-])cc1,inconclusive: 35.5 µM
2,O=P(Nc1nccs1)(c1ccccc1)c1nc2ccccc2s1 (stereo not drawn),inconclusive: 3.16 µM
3,O=[N+]([O-])c1cc2c(cc1[N+](=O)[O-])OCO2,inconclusive: 35.5 µM
